# Yeast mating assay 2: variants of the scFv Ab-91

Binding partner: SARS-CoV-2 spike HR2 peptide, sequence PDVDLGDISGINAS.

Parent: Ab-91, a human scFv built as VL, a (GGGGS)3 linker, VH. Only the CDRs of the heavy chain vary.
VL: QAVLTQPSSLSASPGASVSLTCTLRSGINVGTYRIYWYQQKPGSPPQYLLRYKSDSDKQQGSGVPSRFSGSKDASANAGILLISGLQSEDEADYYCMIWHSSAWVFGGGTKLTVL
VH: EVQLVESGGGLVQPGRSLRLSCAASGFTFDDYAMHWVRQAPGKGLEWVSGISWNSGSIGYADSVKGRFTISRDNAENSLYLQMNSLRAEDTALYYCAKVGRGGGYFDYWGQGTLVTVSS

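The starting antibody came from a phage panning campaign against this peptide. Variants in AAYL51 differ from the parent at up to three CDR positions; double and triple changes were sampled at random. AlphaSeq pools MATa yeast showing the antibodies with MATalpha yeast showing the peptide. Pairs that bind mate more often; barcode pairs of the diploids are counted by sequencing. Scores were corrected for input abundance and mapped to Kd with protein pairs of known affinity run in the same pool. Mating was done three times.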

Variants are written as CDR1, CDR2 and CDR3 of the heavy chain (limits as in the source). Parent: GFTFDDYAMH, GISWNSGSIGYADSVK, VGRGGGYFDY.
Affinities are written as log10 Kd with Kd in nM; a lower number is a better binder.
A mean of the replicates is given; it leaves out those without a signal.
Where no diploid with the target was found in that replicate, the entry reads "n.d.": below detection, most likely a poor binder, though not proof of it.
Background: pairings of library AAYL51 with three empty control strains gave a value in 21% of cases (median 4.54, 5th percentile 3.26). Values in that range, when seen in few replicates, are hard to tell from nonspecific mating. For each scFv, signals with the empty controls are counted beside the result, with their mean in brackets.

CDR-H1 | CDR-H2 | CDR-H3 | log10 Kd (nM) by replicate | log10 Kd (nM), mean | empty controls
GFTFDDYMMH | GISWNVGSISYADSVK | VGRGGGYFDY | n.d. / n.d. / n.d. | n.d. | 0/9
GFSFDDYAMH | GISWNSGSIGYADSVK | MDRGGGYFDY | 4.72 / n.d. / 4.71 | 4.71 | 6/9 (4.89)
FFTFDDYAMH | GISWNSGSIGYADSEK | VGRGGGQFDY | n.d. / n.d. / n.d. | n.d. | 4/9 (4.29)
GFTFDDYAMH | GISWNSGSIGYWDSVK | VGRGGMYEDY | n.d. / 3.96 / n.d. | 3.96 | 5/9 (4.49)
GWTFDDYAMH | GISWNSGSIGYACSVK | VGRGGGYVDY | n.d. / n.d. / n.d. | n.d. | 0/9
GFTFDDCAMH | GISWNSGAIGYADSVK | VGRGGGYFNY | n.d. / n.d. / n.d. | n.d. | 0/9
GFTFDDYMMH | GISWNSGSIGEAYSVK | VGRGGGYFDY | n.d. / n.d. / n.d. | n.d. | 3/9 (4.48)
PFTFDDYAMH | GISWNSGSIGYADSVK | VGQGGGIFDY | n.d. / n.d. / n.d. | n.d. | 0/9
GFTFDDYANH | GISWNSGSIGYCDSVK | VGRGGSYFDY | n.d. / n.d. / n.d. | n.d. | 1/9 (3.84)
GFKFDDYAMH | GISWNSGSIGYADSVK | VGTGGGYFGY | n.d. / n.d. / n.d. | n.d. | 0/9
GFTFDDYAQH | GISWNSGSIGYADSVK | VGRGGHYFCY | 3.35 / n.d. / n.d. | 3.35 | 0/9
GFAFDDYAMH | GISWNSGSIGYADSDK | VGRGGGYFVY | n.d. / n.d. / n.d. | n.d. | 0/9
GFTFDWYAMH | GISWNSGSIGVADSVD | VGRGGGYFDY | n.d. / n.d. / n.d. | n.d. | 1/9 (3.20)
GFTFDDYAMH | GISWNSCSTGYADSVK | VGRGGGYFDY | 1.12 / 0.94 / 0.50 | 0.85 | 0/9
GFTFDDYAMH | GISWNSASIGYADSVK | VHRGGGHFDY | 1.70 / 1.65 / 1.48 | 1.61 | 0/9
GFTLDDYAMK | GISWNSGSIGYADSVK | EGRGGGYFDY | n.d. / n.d. / n.d. | n.d. | 0/9
GDTFDVYAMH | PISWNSGSIGYADSVK | VGRGGGYFDY | 4.89 / 5.21 / n.d. | 5.05 | 3/9 (4.12)
GFTFDDYAMH | GISWNSGSIGCADSSK | VTRGGGYFDY | n.d. / n.d. / n.d. | n.d. | 0/9
GFTFDDYAMH | GISWNSGSLGYADGVK | VGRGGGYFDY | 1.58 / 1.65 / 1.23 | 1.49 | 4/9 (4.50)
GFTFDDYAKH | GISWNSGSIGCADSVK | VGRGGGYFDY | n.d. / 4.18 / 4.83 | 4.50 | 3/9 (4.57)
GKTFDAYAMH | GISWNSGSIGYADSVK | VGRGGGYFDL | 3.74 / 3.06 / 4.13 | 3.64 | 3/9 (4.36)
GFTFDDYAMH | GISWNSISIGYADSVK | SGKGGGYFDY | n.d. / 2.60 / n.d. | 2.60 | 0/9
GFTFDDYAMH | GISWNSGSIGYYDSVK | VGRGGIYFDY | n.d. / n.d. / n.d. | n.d. | 0/9
GFTFDDYPMH | GRSWNSGSICYADSVK | VGRGGGYFDY | n.d. / n.d. / n.d. | n.d. | 2/9 (4.04)
GFTFDDYAMH | GISWNSGSIGYYDSLK | VGRGTGYFDY | 3.37 / n.d. / n.d. | 3.37 | 0/9
FFTFDDMAMH | GISWNSGSIGYADSVK | VGRGGGYFDI | 5.74 / 6.71 / 5.15 | 5.87 | 2/9 (5.12)
GFTQDDEAMH | GISWNSGSIGYADSVK | VGRGGWYFDY | n.d. / n.d. / n.d. | n.d. | 1/9 (4.15)
GFTFDDYAMH | GISRNSFSIYYADSVK | VGRGGGYFDY | 4.33 / n.d. / n.d. | 4.33 | 3/9 (4.91)
GFTFDDYAAH | GISWNSGSIEYADSVK | VGREGGYFDY | 4.41 / n.d. / n.d. | 4.41 | 2/9 (4.15)
GFTFDDYAMH | GISWNIGSIGYADSVK | VGVGGQYFDY | n.d. / 3.77 / n.d. | 3.77 | 2/9 (4.65)

Data: MIT Lincoln Laboratory AlphaSeq set, Engelhart et al. 2022, doi:10.1038/s41597-022-01779-4, as distributed in FLAb.